How the values were obtained:
[1] = target: Vitamin K-dependent protein C (Homo sapiens, UniProt P04070); test: In vitro inhibitory activity against activated protein C was determined
Serine protease 1 = Serine protease 1 (Homo sapiens, UniProt P07477); test: In vitro inhibitory activity against trypsin was determined
Coagulation factor X = Coagulation factor X (Homo sapiens, UniProt P00742); test: In vitro inhibitory activity against Coagulation factor X was determined

Amino acid sequences for entries named in this document (tags omitted). Residues count along the entry.
UniProt P04070, 43-197 limits assumed: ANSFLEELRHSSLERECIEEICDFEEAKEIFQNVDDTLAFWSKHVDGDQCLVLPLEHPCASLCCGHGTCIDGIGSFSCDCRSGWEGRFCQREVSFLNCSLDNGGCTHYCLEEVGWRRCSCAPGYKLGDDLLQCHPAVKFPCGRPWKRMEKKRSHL
UniProt P04070, 212-461 limits assumed: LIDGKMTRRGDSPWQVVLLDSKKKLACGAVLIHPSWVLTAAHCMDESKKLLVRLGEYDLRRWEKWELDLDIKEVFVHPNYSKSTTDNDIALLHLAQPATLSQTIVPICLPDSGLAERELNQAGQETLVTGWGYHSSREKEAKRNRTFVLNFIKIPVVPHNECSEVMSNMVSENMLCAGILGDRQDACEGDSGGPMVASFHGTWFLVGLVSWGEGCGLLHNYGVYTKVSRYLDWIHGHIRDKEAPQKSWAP
UniProt P07477, whole entry: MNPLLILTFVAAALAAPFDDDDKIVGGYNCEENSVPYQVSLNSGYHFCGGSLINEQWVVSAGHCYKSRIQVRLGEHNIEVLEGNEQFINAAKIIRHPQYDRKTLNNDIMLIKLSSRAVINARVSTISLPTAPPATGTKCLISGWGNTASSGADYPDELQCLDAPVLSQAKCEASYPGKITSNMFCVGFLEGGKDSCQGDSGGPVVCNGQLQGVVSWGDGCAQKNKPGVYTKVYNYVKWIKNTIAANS
UniProt P00742, 41-179 limits assumed: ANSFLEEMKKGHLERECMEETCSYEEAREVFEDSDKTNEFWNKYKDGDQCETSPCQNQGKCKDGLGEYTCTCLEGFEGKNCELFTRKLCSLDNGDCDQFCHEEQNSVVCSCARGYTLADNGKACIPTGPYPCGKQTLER
UniProt P00742, 235-488 limits assumed: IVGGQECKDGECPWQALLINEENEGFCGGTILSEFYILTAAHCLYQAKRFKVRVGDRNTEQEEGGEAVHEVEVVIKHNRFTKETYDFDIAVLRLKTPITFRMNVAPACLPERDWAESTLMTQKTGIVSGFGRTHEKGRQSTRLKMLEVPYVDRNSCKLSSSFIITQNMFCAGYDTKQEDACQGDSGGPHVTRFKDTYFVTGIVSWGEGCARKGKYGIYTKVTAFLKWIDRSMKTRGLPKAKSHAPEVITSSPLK

IC50 [1]	IC50 (Serine protease 1)	IC50 (Coagulation factor X)	Compound
> 10 µM	> 10 µM		CN1CCN=C1c1ccc(C(=O)N2CCN(S(=O)(=O)c3cc4cc(Cl)ccc4[nH]3)CC2)cc1
		0.24 µM	NS(=O)(=O)c1ccccc1-c1ccc(C(=O)N2CCN(S(=O)(=O)c3ccc4cc(Br)ccc4c3)CC2)cc1

— ChEMBL document CHEMBL1137970, “N,N-Dialkylated 4-(4-arylsulfonylpiperazine-1-carbonyl)-benzamidines and 4-((4-arylsulfonyl)-2-oxo-piperazin-1-ylmethyl)-benzamidines as potent factor Xa inhibitors” (Bioorg Med Chem Lett, 2004)
